What was measured:
[1] = biological target: recombinant triply mutated EGFR L858R, T790M, C797S kinase domain (mLTC-EGFR) (Homo sapiens, UniProt P00533, C797S/L858R/T790M); assay: TR-FRET fluorescent probe displacement assay; assay type: binding
[2] = biological target: wild-type EGFR (WT-EGFR) (Homo sapiens, UniProt P00533); assay: TR-FRET fluorescent probe displacement assay; assay type: binding

Sequences of proteins named here, by UniProt entry; tags and fusion partners are left off. A change or cut given only in a name is not applied to a line headed by its entry. Residues count along the entry.
UniProt P00533, 696-1022 limits assumed: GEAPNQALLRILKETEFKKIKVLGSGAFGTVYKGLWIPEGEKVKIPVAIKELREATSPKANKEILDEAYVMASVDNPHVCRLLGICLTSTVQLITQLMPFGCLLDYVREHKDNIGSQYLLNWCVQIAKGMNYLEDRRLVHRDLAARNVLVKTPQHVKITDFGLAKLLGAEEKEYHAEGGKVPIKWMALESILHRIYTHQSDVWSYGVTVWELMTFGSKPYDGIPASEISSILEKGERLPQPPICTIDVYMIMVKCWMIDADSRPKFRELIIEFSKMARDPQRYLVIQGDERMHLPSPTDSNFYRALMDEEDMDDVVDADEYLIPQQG
UniProt P00533, 712-979 T790M/C797S/L858R limits assumed: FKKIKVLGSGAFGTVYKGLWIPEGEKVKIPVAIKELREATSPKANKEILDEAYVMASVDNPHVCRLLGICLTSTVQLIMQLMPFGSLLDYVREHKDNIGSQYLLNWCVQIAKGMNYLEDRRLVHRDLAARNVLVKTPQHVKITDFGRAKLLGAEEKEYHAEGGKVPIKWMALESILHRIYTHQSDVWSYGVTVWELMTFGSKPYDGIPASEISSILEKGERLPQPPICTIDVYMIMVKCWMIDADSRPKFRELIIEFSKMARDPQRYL

CN(C)CCN(C)c1ccc(Nc2ncc3ccc(=O)n(-c4ccccc4)c3n2)cc1
mLTC-EGFR pIC50 ± std dev ([1]; n > 3): 6.2 ± 0.14
IC50 ([1]; read-out: mLTC-EGFR IC50): 0.63 µM
WT-EGFR pIC50 ± std dev ([2]; n > 3): 5.1 ± 0.40
IC50 ([2]; read-out: WT-EGFR IC50): 7.2 µM

Reference: article PMC12794186, “Covalent Alkynylpyridopyrimidinones Targeting Cysteine 775 of the Epidermal Growth Factor Receptor Overcome Resistance to Current Therapies” (Journal of Medicinal Chemistry, 2025)
